Drawing on ChEMBL document CHEMBL3112474, “Discovery of substituted lactams as novel dual orexin receptor antagonists. Synthesis, preliminary structure-activity relationship studies and efforts towards improved metabolic stability and pharmacokinetic properties. Part 1” (Bioorg Med Chem Lett, 2014), this text covers IC50 for one molecule.

By UniProt entry, the sequences of proteins in these tests, tags left out.
UniProt O43614, whole entry: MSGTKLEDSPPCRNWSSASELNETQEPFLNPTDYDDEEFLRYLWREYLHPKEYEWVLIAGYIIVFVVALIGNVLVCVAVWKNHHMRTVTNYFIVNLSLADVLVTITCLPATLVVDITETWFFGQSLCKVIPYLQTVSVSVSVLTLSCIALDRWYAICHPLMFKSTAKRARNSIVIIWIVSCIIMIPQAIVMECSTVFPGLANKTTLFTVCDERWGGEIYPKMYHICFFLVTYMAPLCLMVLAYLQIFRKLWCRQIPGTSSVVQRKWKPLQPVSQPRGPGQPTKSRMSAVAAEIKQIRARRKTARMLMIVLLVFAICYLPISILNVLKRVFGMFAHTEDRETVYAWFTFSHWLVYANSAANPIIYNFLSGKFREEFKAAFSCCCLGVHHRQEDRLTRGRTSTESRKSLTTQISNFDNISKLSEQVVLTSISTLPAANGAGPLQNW

The target of this assay is Orexin receptor type 2 (Homo sapiens, UniProt O43614). Kind of assay: Antagonist activity at human orexin 2 receptor expressed in CHO cells assessed as inhibition of orexin-A-induced calcium mobilization by FLIPR assay. The format is functional, cell-based.

The structures appear in SMILES notation.

On to `COc1cccc(OC)c1C1CCCC(=O)N1Cc1ccc2ccccc2n1` (racemic), for which the concentration for half-maximal inhibition (IC50) was determined as 0.042 µM.
